{
  "sequences": {"note": "Chains of the proteins cited; added tags and fusions are not shown. Residues count along the entry.", "UniProt P28335, 33-458 limits assumed": "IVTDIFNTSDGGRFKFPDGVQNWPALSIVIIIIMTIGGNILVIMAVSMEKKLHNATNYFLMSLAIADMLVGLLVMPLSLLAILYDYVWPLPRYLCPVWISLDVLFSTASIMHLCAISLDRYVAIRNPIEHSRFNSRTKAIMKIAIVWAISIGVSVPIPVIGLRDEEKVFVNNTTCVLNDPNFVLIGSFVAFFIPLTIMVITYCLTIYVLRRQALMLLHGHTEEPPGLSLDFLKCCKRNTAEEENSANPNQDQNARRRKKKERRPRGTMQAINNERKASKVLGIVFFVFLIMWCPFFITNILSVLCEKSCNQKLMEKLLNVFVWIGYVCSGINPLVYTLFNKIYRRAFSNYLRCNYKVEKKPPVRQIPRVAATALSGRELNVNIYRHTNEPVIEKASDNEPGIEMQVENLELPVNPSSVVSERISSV"},
  "source": "patent US9533973B2",
  "about": "“Allosteric modulators of 5-hydroxytryptamine 2C receptor (5-HT2CR)” (THE BOARD OF REGENTS OF THE UNIVERSITY OF TEXAS SYSTEM, priority 2011, dated 2017)",
  "key": {"[1]": {"target": "human 5-HT2CR (Homo sapiens, UniProt P28335)", "assay": "5-HT induced intracellular calcium (Cai++) release assay in live 5-HT2CR-CHO cells", "conditions": "5-HT-induced Cai++ release", "description": "Selected results for the biological characterization of the synthesized compounds can be found in Ding et al., ACS Chem. Neurosci., 3, 538-545, 2012, and also described herein. The biological activity is assessed using an intracellular calcium (Cai^++) release assay. The best-characterized intracellular signaling pathway of the 5-HT2CR is the activation of phospholipase C (PLCβ) via Gαq/11 proteins and the production of diacylglycerol (DAG) and inositol-1,4,5-trisphosphate (IP3), leading to increased Cai^++ release from intracellular stores (Berg et al., Neuropharmacology 55, 969-76, 2008). Functional characterization of our synthetic PNU-69176E (CYD-1-78-2) and its diastereomer CYD-1-78-1 was determined by utilizing an Cai^++ release assay in live cells in which Cai^++ levels can be regarded as an outcome measure of activation of the 5-HT2CR signaling pathway (Berg et al., Neuropharmacology 55, 969-76, 2008). […]\nChanges in Cai^++ levels were determined using the calcium sensitive dye Calcium 4 (FLIPR No-wash kit, Molecular Devices, Sunnyvale, Calif., part #R8142). […] Fluorescence (λex=485 nm, λem=525 nm) was measured with a FlexStation3 (Molecular Devices). […] Addition of 20 μL of 5× concentrated tested compound occurred at 17 sec and fluorescence was recorded every 1.7 sec for 90 sec to determine any innate agonist activity. […]"}, "[2]": {"assay": "Solubility of representative compounds (Table 1)", "assay_type": "physicochemical", "conditions": "solvents listed"}},
  "data": [
    {"smiles": "CS[C@H]1O[C@H]([C@H](NC(=O)c2ccccc2C2CCNCC2)[C@H](C)Cl)[C@H](O)[C@H](O)[C@H]1O", "values": [
      {"measurement": "EC50", "setting": "[1]", "value": 0.0103, "unit": "µM"},
      {"measurement": "Solubility", "setting": "[2]", "value": "H2O, EtOH, DMSO"}
    ]}
  ]
}
